These are literature values, as cited in publication PMC6342991, “Effects of point mutations in the binding pocket of the mouse major urinary protein MUP20 on ligand affinity and specificity” (Scientific Reports, 2019).

The target of this series is T1, MUP20Y103R (Mus musculus, UniProt Q5FW60, Y103R).
T1 construct: 6xHis (N); made in house; host or cells: E. coli BL21(DE3), pET5b
T1 sequence (Q5FW60 20-181 Y103R): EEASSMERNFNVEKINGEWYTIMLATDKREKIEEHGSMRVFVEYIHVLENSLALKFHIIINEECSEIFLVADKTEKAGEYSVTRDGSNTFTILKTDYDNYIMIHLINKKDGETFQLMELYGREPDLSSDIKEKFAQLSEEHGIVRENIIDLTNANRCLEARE
Set-up: method as in Scorsone et al., IEEE Sensors Journal 2016, 16, 6543, Tab. 1. The settings on record: ref Scorsone et al., IEEE Sensors Journal 2016, 16, 6543, Tab. 1; read-out: Kd, Y103R (starred value); cited from earlier work.

Structures are written as SMILES.

As a reminder, the Kd is the constant that tells how readily two partners part at equilibrium. With `CC1=CC(=O)c2ccccc2C1=O` [MEN, methylnapthalene-1,4-dione], the dissociation constant Kd was 1330 nM.
